Source: PMC10655810 (Journal of Agricultural and Food Chemistry, 2023)

By UniProt entry, the sequences of proteins in these tests, tags left out. Residues count along the entry.
UniProt P00791, 60-385: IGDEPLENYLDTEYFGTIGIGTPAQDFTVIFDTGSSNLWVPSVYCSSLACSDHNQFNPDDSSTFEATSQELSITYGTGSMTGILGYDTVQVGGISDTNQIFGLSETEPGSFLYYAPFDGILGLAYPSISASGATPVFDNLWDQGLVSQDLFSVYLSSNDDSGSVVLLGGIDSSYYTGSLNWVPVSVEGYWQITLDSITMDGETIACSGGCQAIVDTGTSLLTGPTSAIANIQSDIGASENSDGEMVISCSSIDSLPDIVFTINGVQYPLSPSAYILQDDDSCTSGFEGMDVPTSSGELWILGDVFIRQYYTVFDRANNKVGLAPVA

Target: pepsin (Sus scrofa, UniProt P00791)
Format: biochemical, porcine
Conditions: pH 2.5

Proteolytic activity of pepsin (residual activity): 7 ± 1.6%
Substance: pepstatin A
